The values that follow come from patent US20110150767A1, “ALPHA-SUBSTITUTED AND ALPHA-UNSUBSTITUTED AROMATIC AMINO ACID DERIVATIVES AND COMPOSITIONS THEREOF FOR USE TO TREAT, DIAGNOSE, OR MONITOR A MEDICAL CONDITION” (priority 2009, published 2011).

Protein sequences, listed by entry. Tags and fused reporters are not part of them. Residues count along the entry.
UniProt Q9UHI5, whole entry: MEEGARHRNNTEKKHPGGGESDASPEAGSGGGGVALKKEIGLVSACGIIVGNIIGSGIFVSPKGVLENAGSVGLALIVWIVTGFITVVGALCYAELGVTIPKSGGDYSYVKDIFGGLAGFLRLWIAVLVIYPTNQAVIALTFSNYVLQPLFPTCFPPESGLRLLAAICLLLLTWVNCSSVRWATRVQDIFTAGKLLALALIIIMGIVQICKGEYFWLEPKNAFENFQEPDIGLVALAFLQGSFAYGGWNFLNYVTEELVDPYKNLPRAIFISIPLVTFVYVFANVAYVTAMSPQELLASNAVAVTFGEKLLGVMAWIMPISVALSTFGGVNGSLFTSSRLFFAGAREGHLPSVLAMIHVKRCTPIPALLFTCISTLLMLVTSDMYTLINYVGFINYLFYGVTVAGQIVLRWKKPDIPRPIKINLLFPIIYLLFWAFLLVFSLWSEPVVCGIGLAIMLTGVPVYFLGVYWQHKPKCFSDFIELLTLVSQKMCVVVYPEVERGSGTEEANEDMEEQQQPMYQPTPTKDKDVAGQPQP
UniProt Q01650, whole entry: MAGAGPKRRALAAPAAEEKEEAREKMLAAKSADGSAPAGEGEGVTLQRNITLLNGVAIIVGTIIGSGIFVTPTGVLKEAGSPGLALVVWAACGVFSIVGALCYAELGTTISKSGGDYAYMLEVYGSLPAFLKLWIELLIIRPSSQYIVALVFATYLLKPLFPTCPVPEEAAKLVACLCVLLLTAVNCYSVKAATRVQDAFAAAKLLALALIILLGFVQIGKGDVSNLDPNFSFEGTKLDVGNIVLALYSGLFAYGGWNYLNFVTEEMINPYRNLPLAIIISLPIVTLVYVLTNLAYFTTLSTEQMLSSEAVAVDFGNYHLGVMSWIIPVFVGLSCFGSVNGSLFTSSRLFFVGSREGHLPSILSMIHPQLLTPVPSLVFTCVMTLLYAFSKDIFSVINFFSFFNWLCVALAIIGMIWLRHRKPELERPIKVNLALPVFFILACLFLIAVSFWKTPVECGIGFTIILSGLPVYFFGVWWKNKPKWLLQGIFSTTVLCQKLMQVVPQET
UniProt P08195, 102-630 partner: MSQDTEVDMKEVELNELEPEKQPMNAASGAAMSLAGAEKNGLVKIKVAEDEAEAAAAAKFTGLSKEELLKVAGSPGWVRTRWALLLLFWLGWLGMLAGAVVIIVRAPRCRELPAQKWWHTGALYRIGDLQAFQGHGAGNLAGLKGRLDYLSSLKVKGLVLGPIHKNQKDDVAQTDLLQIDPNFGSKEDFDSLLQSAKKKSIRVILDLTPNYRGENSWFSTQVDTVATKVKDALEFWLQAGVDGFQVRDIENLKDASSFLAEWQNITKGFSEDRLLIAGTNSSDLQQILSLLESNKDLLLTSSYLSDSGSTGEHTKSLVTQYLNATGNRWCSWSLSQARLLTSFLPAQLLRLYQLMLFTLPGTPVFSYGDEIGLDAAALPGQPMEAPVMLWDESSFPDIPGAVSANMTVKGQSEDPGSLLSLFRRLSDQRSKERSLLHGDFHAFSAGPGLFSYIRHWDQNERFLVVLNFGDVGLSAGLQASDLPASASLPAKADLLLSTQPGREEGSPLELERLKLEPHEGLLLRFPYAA

SMILES strings stand for the structures.

Test [1] has as its target human L-type amino acid transporter 2 (LAT2; S2-hLAT2 cells) (Homo sapiens, UniProt Q9UHI5). As to the kind of experiment: Inhibition of L-[14C]leucine uptake in S2-LAT2 cells. The note with it: read-out: IC50 (μM) S2-LAT2, inhibition of 1.0 μM L-[14C]leucine uptake, 1.0 min, 37° C., NI = no inhibition at 100 μM, tested form: HCl. The method, then: (§1) The establishment and characterization of mammalian cell lines expressing human L-type amino acid transporterss (i.e. S2-hLAT1 and S2-hLAT2) has been previously described (Morimoto et al., Journal of Pharmacological Sciences, 2008, 108, 505-516).
(§2) General test procedures are as follows: All test compounds were dissolved in dimethyl sulfoxide (DMSO) to prepare stock solutions at the concentrations of 0.05, 0.5, 5.0 and 50 mM; next, these stock solutions were used and diluted with uptake solution to make final test concentrations of 0.10, 1.00, 10.0 and 100 μM, respectively. Therefore, all compounds used for uptake experiment were in uptake solution containing 0.2% DMSO; experiments are performed in triplicate for each concentration. For control uptake, only DMSO was added into the uptake solution to a final concentration of 0.2%.
(§3) S2-LAT1 and S2-LAT2 cells were seeded (1.3×10^5 cells/well) into 24-well plates and cultured at 33° C. (5% CO2) for 2-3 days until confluent (90%-100% confluence). Uptake experiments were performed at 37° C. The culture medium was removed and washed 3 times with uptake solution (37° C.; Hank's Na^+ free buffer consisting of 125 mM choline chloride, 4.8 mM KCl, 1.3 mM CaCl2, 1.2 mM MgCl2, 25.0 mM HEPES, and 5.0 mM Tris, pH 7.4, supplemented with D-glucose (5.6 mM). The cells were equilibrated in uptake solution (300 μL; 37° C.) for 12 min. The equilibrated solution was removed and uptake solution containing radio-labeled compound (1.0 μM L-[^14C] Leucine) with or without test compound (300 μL) was added to the cells (1.0 min). The test solution was removed and the cells washed 3 times with ice-cold uptake solution. The cells are then solubilized with 0.1N NaOH (0.5 mL) and transferred to scintillation vials. Liquid scintillation fluid (3.0 mL; aquasol-2) was added, mixed and substrate accumulation was measured by counting radioactivity via liquid scintillation counting (LSC; LSC6100, Aloka, Tokyo). The uptake value and % of inhibition were calculated to afford IC50 values.

Test [2] deals with human L-type amino acid transporter 1 (LAT1; S2-hLAT1 cells) (Homo sapiens, UniProt Q01650). As to the kind of experiment: Inhibition of L-[14C]leucine uptake in S2-LAT1 cells. The note with it: read-out: IC50 (μM) S2-LAT1, inhibition of 1.0 μM L-[14C]leucine uptake, 1.0 min, 37° C., NI = no inhibition at 100 μM, tested form: HCl. The method, then: as §1, §2, §3

Usually IC50 stands for the concentration at which inhibition is half-maximal. Turning to `N[C@@H](Cc1cc(Br)c(OCc2cc(C(F)(F)F)ccc2C(F)(F)F)c(Br)c1)C(=O)O`, the concentration for half-maximal inhibition (IC50) in test [1] and in test [2] was > 100 µM throughout.
Turning to `COc1cc(OC)c(OC)cc1COc1c(Br)cc(C[C@H](N)C(=O)O)cc1Br`, the IC50 in test [1] is > 100 µM; in test [2] it was 31.1 µM.
The corresponding values for `N[C@@H](Cc1cc(Cl)c(OCc2ccccn2)c(Cl)c1)C(=O)O` are > 100 µM and 93.3 µM.
On to `N[C@@H](Cc1cc(Br)c(OCCc2ccccc2)c(Br)c1)C(=O)O`, for which the IC50 in test [1] was > 100 µM; in test [2] it was 19.9 µM.
In the case of `N[C@@H](Cc1cc(I)c(OCCc2ccc(F)cc2)c(I)c1)C(=O)O`, the half-maximal inhibitory concentration (IC50) in test [1] and in test [2] was > 100 µM each time.
With `COc1ccc(COc2c(I)cc(C[C@H](N)C(=O)O)cc2I)cc1[N+](=O)[O-]`, the results for the IC50 in test [1] and in test [2] were > 100 µM and 64.5 µM, respectively.
The corresponding values for `CCOc1cc(COc2c(Br)cc(C[C@H](N)C(=O)O)cc2Br)cc(OCC)c1OCC` are > 100 µM and 2.1 µM.
Regarding `COc1ccc(COc2c(Br)cc(C[C@H](N)C(=O)O)cc2Br)c(OC)c1`, the IC50 in test [1] is 3.3 µM; in test [2], 0.42 µM.
Consider `N[C@@H](Cc1cc(Br)c(OCc2cccc(C(F)(F)F)c2)c(Br)c1)C(=O)O`, for which the IC50 in test [1] and in test [2] was > 100 µM throughout.
With `N[C@@H](Cc1cc(I)c(OCCc2ccc(C(F)(F)F)cc2)c(I)c1)C(=O)O`, the IC50 in test [1] was > 100 µM; in test [2] it was 7.4 µM.
The like results for `N[C@@H](Cc1cc(Cl)c(OCc2ccc(C(F)(F)F)cc2)c(Cl)c1)C(=O)O` were, in that order, 14.4 µM and 10.1 µM.
For `COc1cccc(COc2c(Cl)cc(C[C@H](N)C(=O)O)cc2Cl)c1`, the IC50 was 28.3 µM in test [1] and 13.6 µM in test [2].
The corresponding values for `N[C@@H](Cc1cc(Cl)c(OCc2ccc(F)cc2)c(Cl)c1)C(=O)O` are 19 µM and 10.2 µM.
In the case of `N[C@@H](Cc1cc(Br)c(OCc2ccc(C(F)(F)F)cc2)c(Br)c1)C(=O)O`, the IC50 in test [1] and in test [2] was > 100 µM in each case.
`COc1ccc(CCOc2c(I)cc(C[C@H](N)C(=O)O)cc2I)cc1OC`: the IC50 in test [1] was > 100 µM; in test [2] it was 4.8 µM.
The like results for `N[C@@H](Cc1cc(I)c(OCCc2cccc(F)c2)c(I)c1)C(=O)O` were, in that order, > 100 µM and 67 µM.
The like results for `CCOc1cc(COc2c(I)cc(C[C@H](N)C(=O)O)cc2I)cc(OCC)c1OCC` were, in that order, > 100 µM and 6.2 µM.
The corresponding values for `N[C@@H](Cc1cc(I)c(OCc2cccc(F)c2)c(I)c1)C(=O)O` are 12.9 µM and 42.5 µM.
For the compound `COc1cccc(COc2c(I)cc(C[C@H](N)C(=O)O)cc2I)c1`, the IC50 in test [1] and in test [2] was > 100 µM in each case.
Regarding `N[C@@H](Cc1cc(I)c(OCc2cccc(F)c2F)c(I)c1)C(=O)O`, the IC50 turned out to be 13.9 µM in test [1] and 27 µM in test [2].
Turning to `N[C@@H](Cc1cc(I)c(OCc2cccnc2)c(I)c1)C(=O)O`, the IC50 was > 100 µM in test [1] and 86 µM in test [2].
The corresponding values for `COc1cc(COc2c(Br)cc(C[C@H](N)C(=O)O)cc2Br)cc(OC)c1OC` are > 100 µM and 9.4 µM.
The corresponding values for `COc1ccccc1CCOc1c(Cl)cc(C[C@H](N)C(=O)O)cc1Cl` are > 100 µM and 3.4 µM.
On to `N[C@@H](Cc1cc(Cl)c(OCCc2ccc(C(F)(F)F)cc2)c(Cl)c1)C(=O)O`, for which the values for the IC50 in test [1] and in test [2] were > 100 µM and 1.3 µM, respectively.
The corresponding values for `COc1ccccc1CCOc1c(I)cc(C[C@H](N)C(=O)O)cc1I` are > 100 µM and 3.9 µM.
The like results for `COc1cc(OC)c(OC)cc1COc1c(I)cc(C[C@H](N)C(=O)O)cc1I` were, in that order, > 100 µM and 70.6 µM.
The like results for `N[C@@H](Cc1cc(Br)c(OCCc2cccc(F)c2)c(Br)c1)C(=O)O` were, in that order, > 100 µM and 22.2 µM.
On to `N[C@@H](Cc1cc(Br)c(OCc2cccc(F)c2)c(Br)c1)C(=O)O`, for which the results for the half-inhibitory concentration (IC50) in test [1] and in test [2] were 49.3 µM and 71.5 µM, respectively.
For `N[C@@H](Cc1cc(Br)c(OCc2ccccn2)c(Br)c1)C(=O)O`, the IC50 in test [1] and in test [2] was > 100 µM each time.
With `N[C@@H](Cc1cc(Cl)c(OCc2cccc(C(F)(F)F)c2)c(Cl)c1)C(=O)O`, the values for the IC50 in test [1] and in test [2] were 9.2 µM and 2.9 µM, respectively.
Consider `N[C@@H](Cc1cc(I)c(OCc2ccc(F)cc2F)c(I)c1)C(=O)O`, for which the IC50 was determined as 5.5 µM in test [1] and 14 µM in test [2].
The like results for `Cc1c(C)c(C)c(COc2c(I)cc(C[C@H](N)C(=O)O)cc2I)c(C)c1C` were, in that order, > 100 µM and > 100 µM.
The like results for `N[C@@H](Cc1cc(Br)c(OCc2ccc([N+](=O)[O-])cc2)c(Br)c1)C(=O)O` were, in that order, 5.5 µM and 29.2 µM.
Regarding `N[C@@H](Cc1cc(I)c(OCCc2cccc(C(F)(F)F)c2)c(I)c1)C(=O)O`, the IC50 in test [1] and in test [2] was > 100 µM throughout.
On to `N[C@@H](Cc1cc(Br)c(OCc2cccc(F)c2F)c(Br)c1)C(=O)O`, for which the IC50 stood at 42.2 µM in test [1] and 88 µM in test [2].
Regarding `N[C@@H](Cc1cc(Cl)c(OCCc2ccc([N+](=O)[O-])cc2)c(Cl)c1)C(=O)O`, the IC50 is > 100 µM in test [1] and 19.8 µM in test [2].
